Data: article PMC8915595, “Revisiting the application of Immobilized Artificial Membrane (IAM) chromatography to estimate in vivo distribution properties of drug discovery compounds based on the model of marketed drugs” (ADMET & DMPK, 2020)

Protein sequences, listed by entry. Tags and fused reporters are not part of them. Residues count along the entry.
UniProt P02768, 25-609: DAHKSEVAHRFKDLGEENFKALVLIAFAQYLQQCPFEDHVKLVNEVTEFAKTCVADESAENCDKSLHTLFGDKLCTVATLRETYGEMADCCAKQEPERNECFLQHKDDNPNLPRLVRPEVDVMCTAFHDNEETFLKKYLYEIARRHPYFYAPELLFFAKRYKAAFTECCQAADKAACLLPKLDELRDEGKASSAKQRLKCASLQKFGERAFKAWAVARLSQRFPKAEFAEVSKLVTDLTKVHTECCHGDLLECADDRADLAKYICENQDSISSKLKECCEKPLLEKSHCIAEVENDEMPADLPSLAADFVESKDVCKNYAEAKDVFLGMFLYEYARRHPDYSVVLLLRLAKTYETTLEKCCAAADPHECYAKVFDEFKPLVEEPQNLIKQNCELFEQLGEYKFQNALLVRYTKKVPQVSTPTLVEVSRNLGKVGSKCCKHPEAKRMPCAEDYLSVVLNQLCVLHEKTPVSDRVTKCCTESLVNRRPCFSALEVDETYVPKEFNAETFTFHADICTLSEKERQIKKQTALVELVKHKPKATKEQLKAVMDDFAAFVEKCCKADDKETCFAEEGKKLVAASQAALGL

Columns and labels:
[1] = human
[2] = biological target: T1, human serum albumin (HSA) (Homo sapiens, UniProt P02768); settings: cited from earlier work
[3] = biological target: T1, human serum albumin (HSA); assay: Protein binding on chemically bonded HSA column (Chiralpak-HSA); settings: remeasured in this study, pH 7.4

| Structure (SMILES) | reference log Vdss [1] | log K HSA from ref [13] [2] | log K HSA [3] |
| --- | --- | --- | --- |
| O=c1n(CCCN2CCN(c3cccc(Cl)c3)CC2)nc2ccccn12 [Trazodone] | 0.01 |  |  |
| C[C@H]1C[C@H]2[C@@H]3CCC4=CC(=O)C=C[C@]4(C)[C@@]3(F)[C@@H](O)C[C@]2(C)[C@@]1(O)C(=O)CO [Betamethasone] |  | 1.09 | 1.39 |
| Clc1ccc2c(c1)C(N1CCNCC1)=Nc1ccccc1O2 [Amoxapine] | 1.67 |  |  |
| CC(=O)Nc1nnc(S(N)(=O)=O)s1 [Acetazolamide] |  |  | 1.44 |
| CC(=O)N1CCN(c2ccc(OCC3COC(Cn4ccnc4)(c4ccc(Cl)cc4Cl)O3)cc2)CC1 (stereo not drawn) [Ketoconazole] |  | 4.8 | 5.40 |
| C[C@]12C=CC(=O)C=C1CC[C@@H]1[C@@H]2[C@@H](O)C[C@@]2(C)[C@H]1CC[C@]2(O)C(=O)CO |  | 0.8 | 1.08 |
| CC(CCc1ccccc1)NCC(O)c1ccc(O)c(C(N)=O)c1 (stereo not drawn) |  | 0.69 | 0.52 |
| CCOC(=O)c1ncn2c1CN(C)C(=O)c1cc(F)ccc1-2 [Flumazenil] |  |  | 8.50 |
